We go through one substance from patent US20100221709A1, “METHODS FOR IDENTIFYING AGENTS THAT MODULATE APOPTOSIS IN CELLS THAT OVER-EXPRESS A BCL-2 FAMILY MEMBER PROTEIN” (priority 2005, published 2010).

The assay relates to TABX1A cells (Bcl-xL antisense). Put plainly: Cell viability by trypan blue dye exclusion. The following applies: estimated from the dose-response curve. An excerpt: Briefly, a DNA fragment encoding the full-length mouse Bcl-xL cDNA was isolated from the plasmid pBS-BCL-xL (Tzung et al., Am. J. Path. 150:1985-1995 (1997), incorporated herein by reference in its entirety) by digestion with the restriction endonuclease EcoRI. This EcoRI fragment was cloned into the EcoRI site of the mammalian expression vector pSFFV (Fuhlbrigge et al., Proc. Nat. Acad. Sci. USA 85:5649-5653 (1988)) in both sense and antisense orientations, to form expression plasmids pSFFV-Bc/-xL-WT(sense) or pSFFV-Bc/-xL(antisense), respectively. The tumorigenic murine hepatocyte cell line TAMH was transfected by lipofection (Lipofectamine, Life Technologies, Rockville, Md., according to the manufacturer's recommendations) with the plasmids pSFFV-neo (the control), pSFFV-Bc/-xL-WT(sense) or pSFFV-Bc/-xL(antisense). Characterization of and culture conditions for the cell lines have been previously published (Wu et al., Proc. Nat. Acad. Sci. USA 91:674-78 (1994); Wu et al., Cancer Res. 54:5964-5973 (1994)). […]
Selected transfectants were then tested for whole cell sensitivity to several apoptotic agents. […] Cell viability was determined by trypan blue dye exclusion. The percentage of viable cells was calculated by the number of viable cells (treated with a particular apoptogenic agent) divided by the number in the control group (untreated). […]

Regarding antimycin A, the LD50 is 8.3 µM.
